Measurements published in US20260384442A1, “MACROCYCLIC COMPOUND AS CDK9 INHIBITOR AND USE THEREOF” (published 2026).

Chains of the proteins cited; added tags and fusions are not shown.
UniProt P23458, whole entry: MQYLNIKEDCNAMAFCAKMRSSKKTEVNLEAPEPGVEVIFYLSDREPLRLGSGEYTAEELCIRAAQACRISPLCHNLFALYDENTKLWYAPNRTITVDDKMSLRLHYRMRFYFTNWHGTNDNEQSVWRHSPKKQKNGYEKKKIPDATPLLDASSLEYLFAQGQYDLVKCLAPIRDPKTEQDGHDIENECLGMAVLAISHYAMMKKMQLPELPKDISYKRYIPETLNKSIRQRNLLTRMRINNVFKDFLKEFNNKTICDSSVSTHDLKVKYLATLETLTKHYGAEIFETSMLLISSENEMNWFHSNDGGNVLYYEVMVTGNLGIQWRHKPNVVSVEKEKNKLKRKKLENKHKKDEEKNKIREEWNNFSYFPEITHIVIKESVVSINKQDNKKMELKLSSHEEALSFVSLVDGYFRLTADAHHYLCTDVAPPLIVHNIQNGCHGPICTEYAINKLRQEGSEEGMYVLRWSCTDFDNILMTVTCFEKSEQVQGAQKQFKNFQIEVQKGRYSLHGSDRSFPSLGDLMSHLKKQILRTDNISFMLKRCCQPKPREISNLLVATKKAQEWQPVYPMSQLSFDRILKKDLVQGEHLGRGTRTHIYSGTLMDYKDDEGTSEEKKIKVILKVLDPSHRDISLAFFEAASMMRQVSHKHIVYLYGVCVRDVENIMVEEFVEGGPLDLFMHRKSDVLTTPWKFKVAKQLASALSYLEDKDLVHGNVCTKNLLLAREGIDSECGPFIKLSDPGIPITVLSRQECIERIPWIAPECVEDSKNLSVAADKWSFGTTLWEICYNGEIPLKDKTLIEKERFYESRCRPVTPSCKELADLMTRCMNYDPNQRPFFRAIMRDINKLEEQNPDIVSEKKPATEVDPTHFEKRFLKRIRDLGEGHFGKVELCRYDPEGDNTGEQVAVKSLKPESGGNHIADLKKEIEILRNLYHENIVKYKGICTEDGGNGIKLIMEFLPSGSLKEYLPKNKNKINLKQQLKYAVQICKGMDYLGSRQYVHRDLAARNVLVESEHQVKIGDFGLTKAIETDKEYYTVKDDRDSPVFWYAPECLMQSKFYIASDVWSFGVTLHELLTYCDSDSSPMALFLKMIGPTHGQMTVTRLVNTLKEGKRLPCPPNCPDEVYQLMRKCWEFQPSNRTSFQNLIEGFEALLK
UniProt P50750, whole entry: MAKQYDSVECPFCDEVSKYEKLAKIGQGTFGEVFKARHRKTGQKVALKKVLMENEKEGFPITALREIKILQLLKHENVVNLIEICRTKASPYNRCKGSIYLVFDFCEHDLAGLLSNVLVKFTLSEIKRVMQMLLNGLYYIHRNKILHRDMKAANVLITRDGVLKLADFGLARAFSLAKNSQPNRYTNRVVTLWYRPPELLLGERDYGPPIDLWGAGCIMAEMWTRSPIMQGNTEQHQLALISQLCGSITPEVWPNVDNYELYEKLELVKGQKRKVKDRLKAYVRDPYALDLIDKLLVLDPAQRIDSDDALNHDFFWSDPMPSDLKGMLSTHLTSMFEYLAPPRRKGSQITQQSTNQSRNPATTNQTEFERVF
UniProt O60674, whole entry: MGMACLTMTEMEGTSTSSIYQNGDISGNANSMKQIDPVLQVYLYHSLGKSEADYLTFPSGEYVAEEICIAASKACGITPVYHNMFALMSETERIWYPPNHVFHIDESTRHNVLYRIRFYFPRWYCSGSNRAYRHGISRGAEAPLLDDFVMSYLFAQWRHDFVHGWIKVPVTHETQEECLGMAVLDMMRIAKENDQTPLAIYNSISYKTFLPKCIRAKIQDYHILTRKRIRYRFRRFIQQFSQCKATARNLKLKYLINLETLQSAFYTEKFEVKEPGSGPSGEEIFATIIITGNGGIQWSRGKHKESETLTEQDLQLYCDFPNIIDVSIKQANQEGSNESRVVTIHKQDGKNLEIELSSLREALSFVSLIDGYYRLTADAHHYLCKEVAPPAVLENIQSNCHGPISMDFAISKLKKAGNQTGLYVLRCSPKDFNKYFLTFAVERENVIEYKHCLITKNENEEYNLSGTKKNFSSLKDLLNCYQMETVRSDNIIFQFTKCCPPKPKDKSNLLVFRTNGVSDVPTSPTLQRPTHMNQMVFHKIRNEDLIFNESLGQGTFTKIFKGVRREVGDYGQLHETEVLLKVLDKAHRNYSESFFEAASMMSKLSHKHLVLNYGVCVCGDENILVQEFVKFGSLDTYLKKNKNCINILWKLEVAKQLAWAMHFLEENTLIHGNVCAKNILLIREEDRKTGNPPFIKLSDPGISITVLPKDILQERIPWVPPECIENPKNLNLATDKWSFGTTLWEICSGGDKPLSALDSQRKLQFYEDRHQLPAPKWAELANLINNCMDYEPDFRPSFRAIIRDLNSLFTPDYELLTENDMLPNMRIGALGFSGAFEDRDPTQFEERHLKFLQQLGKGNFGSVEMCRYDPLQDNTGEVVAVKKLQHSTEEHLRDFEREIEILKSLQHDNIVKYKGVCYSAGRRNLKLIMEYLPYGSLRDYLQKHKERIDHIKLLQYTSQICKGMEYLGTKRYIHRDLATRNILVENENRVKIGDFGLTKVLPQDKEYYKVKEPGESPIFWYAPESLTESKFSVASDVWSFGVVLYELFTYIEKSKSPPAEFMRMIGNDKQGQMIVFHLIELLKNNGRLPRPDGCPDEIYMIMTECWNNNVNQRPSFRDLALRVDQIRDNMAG
UniProt Q5S007, whole entry: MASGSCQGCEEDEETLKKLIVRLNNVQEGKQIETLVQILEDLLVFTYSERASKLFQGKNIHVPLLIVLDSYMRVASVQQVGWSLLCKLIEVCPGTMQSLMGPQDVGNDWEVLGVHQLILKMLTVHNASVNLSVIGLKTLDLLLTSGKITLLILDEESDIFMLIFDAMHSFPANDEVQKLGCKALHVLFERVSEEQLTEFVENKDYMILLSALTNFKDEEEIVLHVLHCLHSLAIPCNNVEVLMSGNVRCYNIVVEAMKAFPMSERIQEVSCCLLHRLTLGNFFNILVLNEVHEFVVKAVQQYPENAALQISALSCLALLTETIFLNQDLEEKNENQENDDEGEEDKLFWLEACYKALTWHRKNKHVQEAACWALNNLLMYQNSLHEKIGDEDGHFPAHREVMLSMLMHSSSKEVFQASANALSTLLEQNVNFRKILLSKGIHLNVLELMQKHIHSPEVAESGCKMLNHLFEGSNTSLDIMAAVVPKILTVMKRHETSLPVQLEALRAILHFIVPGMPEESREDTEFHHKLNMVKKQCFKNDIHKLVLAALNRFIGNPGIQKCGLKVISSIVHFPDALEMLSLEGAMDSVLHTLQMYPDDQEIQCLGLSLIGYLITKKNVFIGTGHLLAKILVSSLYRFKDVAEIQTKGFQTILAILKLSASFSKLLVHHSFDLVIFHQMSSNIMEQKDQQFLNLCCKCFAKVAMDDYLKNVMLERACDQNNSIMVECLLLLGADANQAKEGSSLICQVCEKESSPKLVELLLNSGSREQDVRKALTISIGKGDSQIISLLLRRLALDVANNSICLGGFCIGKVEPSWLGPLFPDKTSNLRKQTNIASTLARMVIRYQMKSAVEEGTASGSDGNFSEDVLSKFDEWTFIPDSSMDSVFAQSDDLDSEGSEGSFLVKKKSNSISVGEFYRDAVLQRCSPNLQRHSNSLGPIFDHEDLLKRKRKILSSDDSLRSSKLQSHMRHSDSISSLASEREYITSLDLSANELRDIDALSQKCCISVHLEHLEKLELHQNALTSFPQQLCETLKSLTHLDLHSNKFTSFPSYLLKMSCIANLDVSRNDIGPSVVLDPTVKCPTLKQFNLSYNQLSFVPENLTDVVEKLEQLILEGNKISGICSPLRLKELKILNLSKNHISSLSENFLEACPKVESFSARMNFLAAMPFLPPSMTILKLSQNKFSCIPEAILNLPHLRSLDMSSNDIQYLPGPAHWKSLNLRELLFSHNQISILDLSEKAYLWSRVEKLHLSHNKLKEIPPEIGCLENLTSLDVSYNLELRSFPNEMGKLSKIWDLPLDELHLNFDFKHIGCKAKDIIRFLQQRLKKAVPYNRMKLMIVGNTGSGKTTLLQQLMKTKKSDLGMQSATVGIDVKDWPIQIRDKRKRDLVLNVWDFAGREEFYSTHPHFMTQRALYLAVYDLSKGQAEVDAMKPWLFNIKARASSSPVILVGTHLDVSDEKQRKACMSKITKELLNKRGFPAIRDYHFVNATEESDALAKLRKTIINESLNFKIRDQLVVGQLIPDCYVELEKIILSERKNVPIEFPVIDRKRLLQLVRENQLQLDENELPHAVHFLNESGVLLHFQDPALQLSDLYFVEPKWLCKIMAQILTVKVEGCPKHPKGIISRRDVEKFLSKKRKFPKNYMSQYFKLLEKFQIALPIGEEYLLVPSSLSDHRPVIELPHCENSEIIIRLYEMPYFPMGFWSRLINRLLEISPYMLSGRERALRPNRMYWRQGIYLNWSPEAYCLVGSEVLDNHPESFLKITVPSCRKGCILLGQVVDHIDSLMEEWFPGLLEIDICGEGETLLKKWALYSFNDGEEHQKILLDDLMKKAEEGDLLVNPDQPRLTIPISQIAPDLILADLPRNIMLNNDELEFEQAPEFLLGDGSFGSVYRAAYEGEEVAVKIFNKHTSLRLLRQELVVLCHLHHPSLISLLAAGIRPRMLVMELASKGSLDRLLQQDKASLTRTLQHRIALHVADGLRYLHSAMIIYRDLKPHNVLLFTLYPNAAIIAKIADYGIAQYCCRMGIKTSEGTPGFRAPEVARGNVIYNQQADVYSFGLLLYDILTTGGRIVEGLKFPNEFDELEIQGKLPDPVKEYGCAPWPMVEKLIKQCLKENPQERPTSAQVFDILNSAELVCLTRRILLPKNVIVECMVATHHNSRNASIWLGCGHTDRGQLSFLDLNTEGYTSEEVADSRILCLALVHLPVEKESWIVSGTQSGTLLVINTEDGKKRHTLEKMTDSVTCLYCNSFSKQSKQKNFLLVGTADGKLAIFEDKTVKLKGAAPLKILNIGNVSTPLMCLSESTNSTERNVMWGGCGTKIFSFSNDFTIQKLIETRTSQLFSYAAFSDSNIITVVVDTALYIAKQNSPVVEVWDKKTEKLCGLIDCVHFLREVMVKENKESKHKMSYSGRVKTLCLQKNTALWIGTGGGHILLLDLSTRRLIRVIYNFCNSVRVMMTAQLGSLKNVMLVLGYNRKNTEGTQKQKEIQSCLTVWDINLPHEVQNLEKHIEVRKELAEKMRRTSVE
UniProt O60563, whole entry partner: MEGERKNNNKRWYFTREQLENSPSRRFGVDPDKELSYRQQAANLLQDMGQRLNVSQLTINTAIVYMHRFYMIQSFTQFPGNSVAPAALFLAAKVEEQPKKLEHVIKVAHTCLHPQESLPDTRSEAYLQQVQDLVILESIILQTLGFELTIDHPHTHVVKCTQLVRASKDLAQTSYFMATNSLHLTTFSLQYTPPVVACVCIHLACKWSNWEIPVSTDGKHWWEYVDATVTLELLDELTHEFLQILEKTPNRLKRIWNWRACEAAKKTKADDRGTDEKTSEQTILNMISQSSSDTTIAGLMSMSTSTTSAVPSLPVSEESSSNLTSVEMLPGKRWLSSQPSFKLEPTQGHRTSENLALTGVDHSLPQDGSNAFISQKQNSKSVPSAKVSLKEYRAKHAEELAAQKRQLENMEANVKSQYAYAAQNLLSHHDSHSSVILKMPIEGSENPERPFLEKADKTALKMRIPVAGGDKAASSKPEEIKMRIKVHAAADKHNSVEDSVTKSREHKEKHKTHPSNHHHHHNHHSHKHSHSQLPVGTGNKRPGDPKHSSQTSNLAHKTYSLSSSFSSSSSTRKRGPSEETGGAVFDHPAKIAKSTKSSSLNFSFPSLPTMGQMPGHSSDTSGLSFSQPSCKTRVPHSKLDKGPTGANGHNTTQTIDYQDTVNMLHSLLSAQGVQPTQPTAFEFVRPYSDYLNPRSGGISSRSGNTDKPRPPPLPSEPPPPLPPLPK

Experiments:
JAK1 = JAK1 (Homo sapiens, UniProt P23458); assay: Kinase selectivity at 10 nM, JAK1
Experimental: (§1) The inhibitory effect of the compounds on the activity of CDK9 protein kinase was detected by the caliper mobility shift assay method. 250 nL of the compound at 100-fold final concentration was transferred to a target 384-well-plate with a dispenser Echo 550. A kinase solution at 2.5-fold final concentration was prepared using 1× kinase buffer. 10 μL of the kinase solution at 2.5-fold final concentration was added to the compound well and positive control well respectively. 10 μL of 1× kinase buffer was added to the negative control well. The 384-well plate was centrifuged at 1000 rpm for 30 seconds and incubated at room temperature for 10 minutes. A mixed solution of ATP and kinase substrate at 5/3-fold final concentration was prepared with 1× kinase buffer, and to the 384-well plate was added with 15 μL per well of the mixed solution of ATP and substrate at 5/3-fold final concentration to start the reaction. The plate was centrifuged at 1000 rpm for 30 seconds, shaken to mix evenly, and incubated at room temperature for a corresponding time. 30 μL of detection stopping solution was added to terminate the kinase reaction. The 384-well plate was centrifuged at 1000 rpm for 30 seconds and shaken to mix evenly. The conversion rate was read with Caliper EZ Reader. The percent conversion inhibition rate=(% positive control conversion rate mean−% sample conversion rate/(% positive control conversion rate mean−% negative control conversion rate mean). Among them: negative control wells represent the conversion rate readings of kinase buffer background wells; positive control wells represent the conversion rate readings of wells without inhibition by compound. With the log value of concentration as the x-axis and the percentage inhibition rate as the y-axis, a dose-response curve was fitted using the log (inhibitor) vs. response—Variable slope of the analysis software GraphPad Prism 5 to obtain the IC50 value of each compound on enzyme activity. Calculation formula: y=Bottom+(Top− Bottom)/(1+10^((Log IC50−x)×hillslope)), x: logarithm of inhibitor concentration; y: % inhibition rate.
(§2) According to the description of the above experiment on kinase activity inhibition, some compounds were tested for their selective inhibition rate against the kinases of CDK7, CDK9, JAK1, JAK2, JAK3, ITK, RET, TYK2, and LRRK2 at 10 nM.

CDK9 = CDK9 (Homo sapiens, UniProt P50750); assay: Inhibition on CDK9 kinase activity, caliper mobility shift assay; conditions: 10 nM
Experimental: Compounds were tested at a concentration of 10 nM with detection in duplicate wells, or tested at 10 concentrations starting from 10 μM with three-fold serial dilutions, with detection in duplicate wells.
as §1, §2

JAK2 = JAK2 (Homo sapiens, UniProt O60674); assay: Kinase selectivity at 10 nM, JAK2
Experimental: as §1, §2

LRRK2 = LRRK2 (Homo sapiens, UniProt Q5S007); assay: Kinase selectivity at 10 nM, LRRK2
Experimental: as §1, with “rate. […]” for “rate.”

inhibition rate JAK1 (JAK1): C (<25%)
inhibition rate on CDK9 kinase activity (CDK9; duplicate wells (Table 1)): B (25-49%)
inhibition rate CDK9 (CDK9; selectivity panel (Table 3)): B (25-49%)
inhibition rate JAK2 (JAK2): C (<25%)
inhibition rate LRRK2 (LRRK2): C (<25%)
SMILES: N#Cc1cnc2nc1NCCCCCNCc1cccc(c1)N2
